Measured affinities in a library of Ab-91 heavy chain variants

Data: MIT Lincoln Laboratory AlphaSeq set, Engelhart et al. 2022, doi:10.1038/s41597-022-01779-4, as distributed in FLAb.

The target is the same throughout: PDVDLGDISGINAS, from the HR2 region of SARS-CoV-2 spike.

Parent scFv Ab-91: VL joined to VH by a 15-residue (Gly4Ser)3 linker. Changes lie in the heavy chain CDRs alone.
VL: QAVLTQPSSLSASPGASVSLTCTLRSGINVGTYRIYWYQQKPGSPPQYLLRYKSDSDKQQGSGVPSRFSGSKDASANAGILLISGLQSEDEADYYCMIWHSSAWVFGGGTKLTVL
VH: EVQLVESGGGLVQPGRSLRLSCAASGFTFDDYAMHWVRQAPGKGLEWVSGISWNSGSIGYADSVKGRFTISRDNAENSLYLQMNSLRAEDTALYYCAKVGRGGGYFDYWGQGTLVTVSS

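Phage display of a naive human antibody library on the peptide gave the parent. The library (AAYL51) carries one to three amino acid substitutions per variant, with no insertions or deletions. The scFvs were displayed on barcoded MATa yeast, the peptide on MATalpha yeast. The frequency of each diploid, read from paired DNA barcodes, reflects how well the two displayed proteins bind. Scores were corrected for input abundance and mapped to Kd with protein pairs of known affinity run in the same pool. Each pool was mated in three replicate cultures.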

Variants are written as CDR1, CDR2 and CDR3 of the heavy chain (limits as in the source). Parent: GFTFDDYAMH, GISWNSGSIGYADSVK, VGRGGGYFDY.
Affinities are written as log10 Kd with Kd in nM; a lower number is a better binder.
The mean shown is taken over the replicates in which the pair was detected.
Where no diploid with the target was found in any replicate, the entry reads "nd": below detection, most likely a poor binder, though not proof of it.
For reference, the parent read 1.86 as the reference entry and 0.88 as a member of this library.
As a blank, each scFv also met three strains without target: over library AAYL51, 21% of these pairings were detected, typically at 4.54 and seldom below 3.26.

CDR-H1,CDR-H2,CDR-H3,"mean, log10 nM",seen in
GFTFDDYAMH,GHSWNSGSIGYADVVK,VGGGGGYFDY,3.68,2/3
GFTFDDYAMH,GISWNSQSIGYAGSVK,LGRGGGYFDY,2.97,3/3
EFTFDDDAMH,GISWNSGSIGYADSVK,VGRGGGYFAY,4.42,1/3
GFTFFDYAMH,GISWNSGIIGYADSVK,VGRGGGQFDY,4.70,3/3
GFFFDDYAMH,GISWNSGSIGYALSVK,VRRGGGYFDY,3.15,1/3
GFTFDDYAWH,HISWNSGSIGYADSVK,VGRGGGYGDY,nd,0/3
GFTFDDYAMH,GISWNSYLCGYADSVK,VGRGGGYFDY,1.61,3/3
GFTMDDYAMH,GISWNSGSIGYHDSVK,VGRGGGYPDY,nd,0/3
GFTFDDYAMH,GMSWNAGSIGYADSVK,VGRGGGHFDY,5.76,1/3
GFTFDDYAML,GISWNSGSTGYADAVK,VGRGGGYFDY,nd,0/3
GMRFDDYAMH,GISWNSNSIGYADSVK,VGRGGGYFDY,5.49,1/3
GFTFDDYEMH,GISWNSGSIGYCDSVK,VGRGGGNFDY,4.87,3/3
GWTFDDYAMH,GISWNSGSIGYMDSVK,VGRVGGYFDY,nd,0/3
GFTFDDYGMH,GIPWNSGSFGYADSVK,VGRGGGYFDY,nd,0/3
LFTFDDYAMH,GISWNSGSIGYRDSVK,VGTGGGYFDY,5.51,2/3
GFTFDDYAMH,MISWNVGSIGYADRVK,VGRGGGYFDY,5.31,1/3
GFTFDDYAMH,GISWNSGSIGYADSVK,VCRGLGYFDY,4.04,1/3
GFTFDDYANH,GISWNSGSIGYASSVK,VGRGGGYFDY,3.50,1/3
GFTLDDYAMH,GISWNSGSIGYAMCVK,VGRGGGYFDY,5.35,1/3
GFTFDDYAMH,GISWYSGSIGYADSVK,VGRGGGYFDT,nd,0/3
GFCFDDYAMH,GISWNSGSIGYAPSVK,VGRQGGYFDY,4.34,1/3
GFTFDDYAMH,GISWNSGSIGYATSVK,VNRGGGYFKY,2.15,3/3
GFTFDDYAMR,GISWNSGSIGYAASVK,VGRGGGYLDY,nd,0/3
GFTWDDYAMH,GISTNSGSIGYALSVK,VGRGGGYFDY,4.45,2/3
GFTFDDYAMH,GISWNSGSIPYADSVF,VMRGGGYFDY,4.21,2/3
GFTFDDYAMH,GISWNSGSAIYADSVK,VGRMGGYFDY,nd,0/3
WFTFDDYAMH,GISWNSGSIGYMDSDK,VGRGGGYFDY,nd,0/3
AFTFTDYAMH,GISWNSGSIGYADSVK,VGRGGGHFDY,3.31,3/3
EFTFDDYAMH,GISWNSGSIGYADSVK,VDRGGGYFDY,4.94,1/3
GFTNDDYAMH,GITWNSGSIGYADSVK,VGRGGGTFDY,nd,0/3
GFTEDDYAMH,GISWNSGSIGYADSVK,AGRGGGYWDY,nd,0/3
GFTFDDLAMH,GITWNSGSIGYADSVK,VGCGGGYFDY,5.09,3/3
GFTFDDYAKH,GISWNDGSIGYADSVK,VGRGGGYFDG,4.71,2/3
GFTFDNYAMH,PISWNSGSIGYAYSVK,VGRGGGYFDY,5.55,3/3
GFTFDDYAMH,GISWNSGSIWYADSVK,VGRGSGYFDY,5.40,2/3
GFTFDDYCMH,GISWNSGSIGYADSVK,VGRGSGYFDY,nd,0/3
GFTFDDYAME,GISWNSGSIGGADSVK,VGRGGGYFDY,3.71,1/3
GFTCDDYAMH,GGSWNSGSIGDADSVK,VGRGGGYFDY,5.09,2/3
GFTFDDYAMH,GISWNSGLIGGADSVK,VGRGGGYFWY,5.99,3/3
GFTFDDYAMH,GKSWNSGSDGYADSVK,VGRGGGYFDE,nd,0/3
GFTFDDYAMN,GISWNSDSIGYADSVK,VGRGGGYFDF,nd,0/3
PFTCDDYAMH,GISWNSGSIGYADSGK,VGRGGGYFDY,nd,0/3
GFTFDDYAMH,GISWVSGSIGYADSVK,VGREGGYFDD,nd,0/3
GFTFDWYAMH,GISWCSGSIGYADSVK,VGWGGGYFDY,nd,0/3
GFTFDDYAMH,GISWNAGSIGYADSVK,VGVGGGYFDY,2.95,2/3
GFTTDDYHMG,GISWNSGSIGYADSVK,VGRGGGYFDY,nd,0/3

Extract of 4 entries:

{"CDR-H1": "GFFFDDYAMH", "CDR-H2": "GISWNSGSIGYALSVK", "CDR-H3": "VRRGGGYFDY", "mean, log10 nM": "3.15", "seen in": "1/3"}
{"CDR-H1": "GFTFDDYAMH", "CDR-H2": "GISWNSGSIGYADSVK", "CDR-H3": "VCRGLGYFDY", "mean, log10 nM": "4.04", "seen in": "1/3"}
{"CDR-H1": "GFTFDDYAML", "CDR-H2": "GISWNSGSTGYADAVK", "CDR-H3": "VGRGGGYFDY", "mean, log10 nM": "nd", "seen in": "0/3"}
{"CDR-H1": "GFTFDNYAMH", "CDR-H2": "PISWNSGSIGYAYSVK", "CDR-H3": "VGRGGGYFDY", "mean, log10 nM": "5.55", "seen in": "3/3"}